In PubChem BioAssay (NCI):
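Grown in 96-well plates, cells were treated for 48 hours with each compound at five concentrations. Insufficient inhibition: endpoint recorded as highest concentration tested. GI50 = concentration required for 50% inhibition of growth. At the TGI there is no net growth.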

Columns and labels:
Assay in all cases: NCI-60 cell line screen, 48 h; in the data active = GI50 below about 0.43 µM; inactive = the rest
786-0 renal = tested on: 786-0 renal
A498 renal = tested on: A498 renal
A549 NSCLC = tested on: A549 NSCLC
ACHN renal = tested on: ACHN renal
BT-549 breast = tested on: BT-549 breast
CAKI-1 renal = tested on: CAKI-1 renal
CCRF-CEM leukemia = tested on: CCRF-CEM leukemia
COLO 205 colon = tested on: COLO 205 colon
DU-145 prostate = tested on: DU-145 prostate
EKVX NSCLC = tested on: EKVX NSCLC
HCC-2998 colon = tested on: HCC-2998 colon
HCT-116 colon = tested on: HCT-116 colon
HCT-15 colon = tested on: HCT-15 colon
HL-60(TB) leukemia = tested on: HL-60(TB) leukemia
HOP-62 NSCLC = tested on: HOP-62 NSCLC
HOP-92 NSCLC = tested on: HOP-92 NSCLC
HT29 colon = tested on: HT29 colon
IGROV1 ovarian = tested on: IGROV1 ovarian
K-562 leukemia = tested on: K-562 leukemia
KM12 colon = tested on: KM12 colon
LOX IMVI melanoma = tested on: LOX IMVI melanoma
M14 melanoma = tested on: M14 melanoma
MALME-3M melanoma = tested on: MALME-3M melanoma
MCF7 breast = tested on: MCF7 breast
MDA-MB-231 breast = tested on: MDA-MB-231 breast
MDA-MB-435 = tested on: MDA-MB-435
MDA-N = tested on: MDA-N
MOLT-4 leukemia = tested on: MOLT-4 leukemia

BrC1C2(SCCS2)[C@@H]2C[C@@H](c3ccccc32)C12SCCS2 (stereo not given in full)
inactive: GI50 (786-0 renal) > 100 µM | GI50 (A498 renal) > 100 µM | GI50 (A549 NSCLC) > 100 µM | GI50 (ACHN renal) > 100 µM | GI50 (BT-549 breast) > 100 µM | GI50 (CAKI-1 renal) > 100 µM | GI50 (CCRF-CEM leukemia) > 100 µM | GI50 (COLO 205 colon) > 100 µM | GI50 (DU-145 prostate) > 100 µM | GI50 (EKVX NSCLC) > 100 µM | GI50 (HCC-2998 colon) > 100 µM | GI50 (HCT-116 colon) 71.2 µM | GI50 (HCT-15 colon) > 100 µM | GI50 (HL-60(TB) leukemia) 40.4 µM | GI50 (HOP-62 NSCLC) > 100 µM | GI50 (HOP-92 NSCLC) > 100 µM | GI50 (HT29 colon) > 100 µM | GI50 (IGROV1 ovarian) > 100 µM | GI50 (K-562 leukemia) 90.4 µM | GI50 (KM12 colon) > 100 µM | GI50 (LOX IMVI melanoma) > 100 µM | GI50 (M14 melanoma) > 100 µM | GI50 (MALME-3M melanoma) > 100 µM | GI50 (MCF7 breast) > 100 µM | GI50 (MDA-MB-231 breast) > 100 µM | GI50 (MDA-MB-435) 93.2 µM | GI50 (MDA-N) 81.5 µM | GI50 (MOLT-4 leukemia) > 100 µM
> 100 µM: TGI (786-0 renal) | TGI (A498 renal) | TGI (A549 NSCLC) | TGI (ACHN renal) | TGI (BT-549 breast) | TGI (CAKI-1 renal) | TGI (CCRF-CEM leukemia) | TGI (COLO 205 colon) | TGI (DU-145 prostate) | TGI (EKVX NSCLC) | TGI (HCC-2998 colon) | TGI (HCT-116 colon) | TGI (HCT-15 colon) | TGI (HL-60(TB) leukemia) | TGI (HOP-62 NSCLC) | TGI (HOP-92 NSCLC) | TGI (HT29 colon) | TGI (IGROV1 ovarian) | TGI (K-562 leukemia) | TGI (KM12 colon) | TGI (LOX IMVI melanoma) | TGI (M14 melanoma) | TGI (MALME-3M melanoma) | TGI (MCF7 breast) | TGI (MDA-MB-231 breast) | TGI (MDA-MB-435) | TGI (MDA-N)
